Data published in ChEMBL document CHEMBL1144680, “Structure-guided design of aminopyrimidine amides as potent, selective inhibitors of lymphocyte specific kinase: synthesis, structure-activity relationships, and inhibition of in vivo T cell activation” (J Med Chem, 2008).
pIC50: −log10 of the molar value.

Sequences of proteins named here, by UniProt entry; tags and fusion partners are left off. A change or cut given only in a name is not applied to a line headed by its entry.
UniProt P06239: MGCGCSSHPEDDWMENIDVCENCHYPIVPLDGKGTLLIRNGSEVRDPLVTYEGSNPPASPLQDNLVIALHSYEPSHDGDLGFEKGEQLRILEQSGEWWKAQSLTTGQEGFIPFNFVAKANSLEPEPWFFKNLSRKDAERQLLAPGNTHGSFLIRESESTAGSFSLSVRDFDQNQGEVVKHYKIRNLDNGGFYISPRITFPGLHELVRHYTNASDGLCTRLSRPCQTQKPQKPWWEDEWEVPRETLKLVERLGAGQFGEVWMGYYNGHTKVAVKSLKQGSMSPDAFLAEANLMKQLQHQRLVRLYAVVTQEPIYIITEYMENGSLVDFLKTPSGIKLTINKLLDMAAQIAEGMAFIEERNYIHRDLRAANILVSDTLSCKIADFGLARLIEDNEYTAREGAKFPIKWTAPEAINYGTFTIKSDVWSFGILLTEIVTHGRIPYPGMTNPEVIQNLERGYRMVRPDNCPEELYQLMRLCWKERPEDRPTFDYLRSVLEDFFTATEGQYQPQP

How the values were obtained:
Homo sapiens = organism: Homo sapiens; test: Protein binding in human plasma; settings: read-out: PB (converted)
[1] = biological target: Tyrosine-protein kinase Lck (Homo sapiens, UniProt P06239)

Row | SMILES | fraction unbound (Homo sapiens) | pIC50 [1]
1 | COc1cc(OC)cc(C(=O)Nc2ccc(C)c(C(=O)Nc3cnc(Nc4ccc(N5CCN(C)CC5)cc4)nc3)c2)c1 | 0.032 | 
2 | Cc1ccc(NC(=O)c2cccc(C(F)(F)F)c2)cc1C(=O)Nc1cncnc1 |  | 6.62
3 | Cc1ccc(NC(=O)c2ccc3c(c2)OC(F)(F)O3)cc1C(=O)Nc1cnc(Nc2ccc(N3CCN(C)CC3)cc2)nc1 | 0.042 | 
4 | Cc1ccc(NC(=O)c2cc(F)cc(C(F)(F)F)c2)cc1C(=O)Nc1cnc(Nc2ccc(N3CCN(C)CC3)cc2)nc1 | 0.036 | 
